Literature values, collected in article PMC3602246 (BMC Pharmacology & Toxicology, 2013).

Tested on: MOR
Conditions: read-out: Ki, affinity binding to the MOR; literature values, one reference per ligand; ref Reference column of Table S1; cited from earlier work

SMILES: CN(C(=O)Cc1ccc(Cl)c(Cl)c1)[C@H](CN1CCCC1)c1ccccc1 [ICI 199,441]
- Ki: 4.5 µM
